The target of this test is T1, Acetylcholinesterase (Rattus norvegicus, UniProt P37136).
T1 sequence (P37136 whole entry): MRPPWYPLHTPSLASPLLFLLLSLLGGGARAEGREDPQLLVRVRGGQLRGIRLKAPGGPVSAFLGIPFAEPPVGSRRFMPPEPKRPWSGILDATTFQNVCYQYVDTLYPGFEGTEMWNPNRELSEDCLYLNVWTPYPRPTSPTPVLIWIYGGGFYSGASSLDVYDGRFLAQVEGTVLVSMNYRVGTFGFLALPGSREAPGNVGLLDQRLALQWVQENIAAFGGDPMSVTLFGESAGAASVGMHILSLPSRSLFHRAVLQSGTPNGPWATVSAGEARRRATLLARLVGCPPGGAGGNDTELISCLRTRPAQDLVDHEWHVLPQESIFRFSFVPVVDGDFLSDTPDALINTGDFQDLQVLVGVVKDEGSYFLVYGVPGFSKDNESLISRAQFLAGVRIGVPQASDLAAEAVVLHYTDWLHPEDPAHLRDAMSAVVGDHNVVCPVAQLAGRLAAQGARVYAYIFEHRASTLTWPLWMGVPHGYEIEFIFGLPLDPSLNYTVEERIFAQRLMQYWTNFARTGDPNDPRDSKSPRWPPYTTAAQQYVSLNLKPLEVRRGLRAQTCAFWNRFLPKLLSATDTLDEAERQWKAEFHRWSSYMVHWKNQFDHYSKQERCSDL
Briefly: Inhibition concentration against rat acetylcholinesterase.

Our source for the IC50 values is ChEMBL document CHEMBL1127728, “Docking analysis of a series of benzylamino acetylcholinesterase inhibitors with a phthalimide, benzoyl, or indanone moiety” (J Med Chem, 1994).

Molecules are shown by their SMILES.

`CN(CCCCN1C(=O)c2ccc([N+](=O)[O-])cc2C1=O)Cc1ccccc1` displayed a half-inhibitory concentration (IC50) of 8.23 µM.

Consider `O=C(CC1CCN(Cc2ccccc2)CC1)c1ccc(N2CCCC2)cc1`, for which the midpoint of inhibition, the IC50, lay at 19 µM.
